Test results: PubChem BioAssay AID2740 (NMMLSC, 2010)
The list shows a part of the results, in another mix than the full data. Activity calls are given as the source filed them.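 How the source made its calls: active means compounds whose fitted half-maximal concentration for changing the GFP signal is at or below a set limit; inactive means the rest.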

Test: TOR pathway RPL19A-GFP modulators, concentration series – cell-based, S. cerevisiae, flow cytometry, MLPCN hits, dose response (AID 2740);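 further: background is signal of the same compound in parental non-GFP s288c yeast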
Settings: S. cerevisiae RPL19A-GFP strain, 3 h, at 33 µM (top of the series)

In the case of `C[N+]1=C2C=CC=CC=C2SC12C([N+](=O)[O-])=CC([N+](=O)[O-])=C[C-]2[N+](=O)[O-]` (stereo unspecified), the GFP fluorescence, lower = active is reported as inactive: 46.6%.
